According to patent publication US12458538B2, “Functional wound healing dressings” (Ambient Biosciences, Inc., priority 2018, dated 2025):

Details: thicker PCL layers (1, 15 or 30 min electrospinning); PBS; free BSA in supernatant

## bovine serum albumin [BSA]
  dissolution rate of BSA from the dissolvable PEO layer: reduced the dissolution rate
